The record followed here is PubChem BioAssay AID720553 (National Center for Advancing Translational Sciences (NCATS), 2013).

SMILES strings stand for the structures. The list shows a part of the results, in another mix than the full data. Calls of active or inactive are those of the source.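 The calls were made as follows: active = maximum activity change below -70%; inconclusive = maximum activity change from -70% to -50%; inactive = maximum activity change above -50%.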
% is scaled to controls: 0 for no effect and ±100 for the full control effect.

For the experiment, the system named is Potassium voltage-gated channel subfamily H member 2, brain isoform KCNH2 3.1 (human). The experiment can be described thus: qHTS for Inhibitors of KCHN2 3.1: Mutant qHTS. The note with it: U2OS KCNH2 3.1, thallium flux FluxOr; hits give low values. An excerpt:
Many antipsychotic drugs that inhibit the neurotransmitter dopamine also bind to hERG1 channel which might help explain their antipsychotic activity but also produces cardiac side effects. The discovery of the novel KCNH2 3.1 isoform offers a potential new target for the development of antipsychotic drugs without cardiac side effects. This proposal will use a high throughput thallium flux assay developed for KCNH2 to screen compounds that modulate the activity of KCNH2 3.1. The wild type KCNH2 channel will also be screened in parallel to help define the selective modulators of this KCNH2 3.1 potassium channel. The resulting compounds will be validated in electrophysiology experiments. The availability of animal models will allow future testing in vivo for effects on memory and other aspects of animal physiology linked with psychosis. NIH Chemical Genomics Center [NCGC] NIH Molecular Libraries Probe Centers Network [MLPCN] MLPCN Grant: MH096539 Assay Submitter (PI): James Barrow, Johns Hopkins University, Lieber Institute for Brain Development
U2OS cells were resuspended in cell media containing 10% fetal calf serum (FCS) at a concentration of 2 million cells / mL. The solution was treated with the mutant (3.1) virus at 1.77 x 10^8 / mL and allowed to incubate at room temperature in the dark. After 4 hours of incubation, DMEM + 10% fetal bovine serum (FBS) was added to the cell solution. Three microliter was then dispensed into a 1536 tissue culture treated black assay plates which were incubated overnight at 37 C. Two microliter of loading buffer (HBSS + HEPES + Red40 dye quencher + FluxOr dye) was added and the assay plates were incubated for 45 min at room temperature in the dark. […] A stimulation buffer was added to the plate and the second kinetic read (2 min) was obtained. The rate constant was calculated from the kinetic reads and normalized to the positive and negative DMSO controls.
Turning to `CC(C)(C)C(=O)NC(Sc1ccncn1)C(Cl)(Cl)Cl` (stereo not drawn), the activity change is inactive: 1.56%. With `Cc1cc(SC(NC(=O)c2ccc(F)cc2)C(Cl)(Cl)Cl)ncn1` (stereo not drawn), the activity change was inactive: 18.6%. Consider `CCOP(=O)(Nc1ccccc1)OCC`, for which the activity change is inactive: -2.61%.

On to `CN(C(=O)Cc1ccc(Cl)c(Cl)c1)[C@H]1CCCC[C@@H]1N1CCCC1`, for which the activity change was inactive: -28.1%. In the case of `Cc1ccc(NP(=O)(Oc2ccccc2F)Oc2ccccc2F)nc1` it was inactive: 3.24%. `O=P(Nc1nc2ccc(Cl)cc2s1)(c1ccccc1)c1ccccc1`: the activity change was inactive: -4.96%. In the case of `CN(C)P(=O)(N(C)C)n1c(Nc2ccccc2)nnc1-c1ccccc1` it was inactive: -1.9%. Regarding `CC(=O)Nc1ccc([As](=O)(O)O)cc1`, the activity change was inactive: 15.6%. As to `O=C(O)c1ccccc1[As](=O)(O)O`, the activity change is inactive: 1.2%. Take `CCCC1OP(N)(=O)OCC1CC` (stereo not drawn): the activity change was inactive: 9.45%. For the compound `Nc1cccc2ccc([As](=O)(O)O)cc12`, the activity change was inactive: -4.38%.

Regarding `CCN(N=Nc1nonc1N)c1nonc1N`, the activity change is inactive: 19.1%.

As for `CN1CCCC(OC(=O)C(c2ccccc2)c2ccccc2)C1` (stereo not drawn), the activity change is inactive: -43.1%. As for `Clc1ccc(Cl)c(NC2=NCC(CBr)S2)c1` (stereo not drawn), the activity change is inactive: 0.575%. As to `COc1ccccc1OP(=O)(Nc1ccc(C)cn1)Oc1ccccc1OC`, the activity change was inactive: -3.39%. In the case of `Cc1ccc(OP(=O)(Nc2nccs2)Oc2ccc(C)cc2)cc1` it was inactive: -9.03%. As for `CN(C(=O)Cc1ccc(Cl)c(Cl)c1)[C@H]1CCCC[C@H]1N1CCCC1`, the activity change was inactive: -4.81%. In the case of `Cc1ccc(N/C(=N/P(=O)(N2CCOCC2)N2CCOCC2)N2CCOCC2)cc1` it was inactive: -3.72%; in that of `NC(=O)c1cc([N+](=O)[O-])cc([N+](=O)[O-])c1N`, inactive: 13.4%; in that of `Oc1ccccc1CNc1ccccn1`, inactive: 4.98%. As for `O=C(NC(Sc1ccncn1)C(Cl)(Cl)Cl)c1ccccc1` (stereo not drawn), the activity change was inactive: 17.5%.

For the compound `Nc1cc(N)c2nonc2c1[N+](=O)[O-]`, the activity change was inactive: -0.686%.

Turning to `CC(C)CC(=O)NC(Sc1ccc(Cl)cc1)C(Cl)(Cl)Cl` (stereo not drawn), the activity change is inactive: 0.952%. In the case of `CC(C)(C)C(=O)NC(Sc1ccccc1)C(Cl)(Cl)Cl` (stereo not drawn) it was inactive: -13.8%; in that of `CCc1cc(O)c([N+](=O)[O-])c(C)c1[N+](=O)[O-]`, inactive: -5.44%; in that of `O=P1(Nc2nc3ccc(Cl)cc3s2)COc2ccccc2O1` (stereo not drawn), inactive: -33.7%. In the case of `CCOc1ccc(C2=NCC(CBr)S2)cc1` (stereo not drawn) it was inactive: -1.45%; in that of `CC(=O)Nc1ccc([As](=O)(O)O)c(O)c1`, inactive: 5.15%. Turning to `CC(=O)Nc1ccc(Oc2c([N+](=O)[O-])cc([N+](=O)[O-])cc2[N+](=O)[O-])cc1`, the activity change was inactive: 3.26%.

On to `Cc1ccccc1CN(C)C(=O)COC(=O)C(O)(c1ccccc1)c1ccccc1`, for which the activity change was inactive: -4.81%.

In the case of `C[C@H]1OP(=O)(Oc2ccccc2)C[C@@H]2O[C@@H]21` (stereo partly drawn), the activity change is inactive: 2.01%.

`C[C@@H]1C=CCP(=O)(Oc2ccccc2)O1` (stereo partly drawn): the activity change is inactive: 8.08%. Turning to `CC(=O)c1ccc(N2CC2c2ccncc2)cc1` (stereo not drawn), the activity change is inactive: -0.283%. In the case of `COC(=O)C1(C)COP(=O)(NCc2ccccc2)OC1` (stereo not drawn), the activity change was inactive: -9.69%. The result for `O=P1(N(CCCl)CCCl)OCCC2CCCCN21` (stereo not drawn) reads inactive: -5.01%.

With `c1ccc(-c2nn[nH]n2)c(-c2nn[nH]n2)c1`, the activity change is inactive: -36.2%. In the case of `Cc1ccc(NP(=O)(Oc2cccc(C)c2)Oc2cccc(C)c2)nc1` it was inactive: -17.1%; in that of `O=C(NC1CCS(=O)(=O)C1)NP(=S)(Oc1ccccc1)Oc1ccccc1` (stereo not drawn), inactive: 7.71%; in that of `CCNC(=S)/N=C(\N)N[N+](=O)[O-]`, inactive: 6.23%. Turning to `CC(NC(=O)COC(=O)C(O)(c1ccccc1)c1ccccc1)c1ccccc1` (stereo not drawn), the activity change is inactive: -12.2%.

In the case of `Cc1ccccc1OP(=O)(Nc1ccccn1)Oc1ccccc1C`, the activity change was inactive: -8.59%.

Regarding `O=c1c2cc([N+](=O)[O-])ccc2[nH]c2c([N+](=O)[O-])cc([N+](=O)[O-])cc12`, the activity change is inactive: -4.69%. Turning to `CN(C)C(=O)Oc1noc2ccccc12`, the activity change was inactive: 0.989%. In the case of `O=C(OC1CN2CCC1CC2)c1ccccc1` (stereo not drawn) it was inactive: -5.09%; in that of `CCC(=O)N1C2C3N(C(=O)CC)C1C1N(C(=O)CC)C(C(N1C(=O)CC)N3C(=O)CC)N2C(=O)CC`, inactive: -20.8%; in that of `COC(=O)c1cc2c(s1)N=C(c1ccccc1)N(C)P2(=O)N1CCOCC1` (stereo not drawn), inactive: 0.841%. The result for `Cc1ccc(OP(=O)(Nc2ccccn2)Oc2ccc(C)cc2)cc1` reads inactive: 6.82%; that for `CC(=O)NC(SC(=S)N(CC(C)C)CC(C)C)C(Cl)(Cl)Cl` (stereo not drawn), inactive: 8.56%. On to `O=P(Nc1nc2ccccc2s1)(c1ccccc1)c1ccccc1`, for which the activity change is inactive: -5.1%. In the case of `C[C@H]1OP(=O)(Oc2ccccc2)[C@H](O)[C@H](O)[C@H]1N=[N+]=[N-]` (stereo partly drawn) it was inactive: 2.86%. The result for `CN(C)C1(CNC(=O)c2ccc(Cl)c(S(N)(=O)=O)c2)CCCCC1` reads inactive: -1.29%; that for `O=P(Nc1ccccn1)(c1ccc(Br)cc1)c1ccc(Br)cc1`, inactive: -5.4%; that for `COc1ccc(N)c([N+](=O)[O-])c1[N+](=O)[O-]`, inactive: 3.8%. On to `O=C(OC1CN2CCC1CC2)c1cccc(Cl)c1` (stereo not drawn), for which the activity change is inactive: -3.91%. Turning to `C(Cc1nn[nH]n1)Cc1nn[nH]n1`, the activity change was inactive: 2.86%. In the case of `Nc1ccc([As](=O)(O)c2ccc([N+](=O)[O-])cc2)cc1` it was inactive: 8.48%; in that of `O=[As](O)(c1ccccc1)c1ccc(O)cc1`, inactive: -6.4%. The result for `O=[N+]([O-])c1ncn(CCn2cnc([N+](=O)[O-])n2)n1` reads inactive: -10.6%; that for `CC(=O)NC(SC(=S)N(C)C)C(Cl)(Cl)Cl` (stereo not drawn), inactive: -6.4%.

For the compound `O=[N+]([O-])c1ccc(O)c(/C=N/Nc2ccc([N+](=O)[O-])cc2[N+](=O)[O-])c1`, the activity change was inactive: 8.62%. Regarding `c1nnnn1CCn1cnnn1`, the activity change was inactive: 21.7%. For the compound `O=P(Nc1nccs1)(c1ccccc1)c1ccccc1`, the activity change was inactive: -19.4%. For `CC(C)C(=O)NC(Sc1ccccc1)C(Cl)(Cl)Cl` (stereo not drawn), the activity change was inactive: 1.43%.
